Reference: publication PMC10860255, “Scalable production of recombinant three-finger proteins: from inclusion bodies to high quality molecular probes” (2024)

Molecular target: recombinant mouse Pate B (mouse) (UniProt Q09098)
Experiment: SEC

recombinant mouse Pate B (from UniProt Q09098 24-99) (natural protein)
stoichiometry N: 2
